The values that follow come from paper PMC7187165, “Structure‐Based Design, Synthesis, and Biological Evaluation of Triazole‐Based smHDAC8 Inhibitors” (Chemmedchem, 2020).

For the assay, the target named is T1, smHDAC8 (Schistosoma mansoni, UniProt A5H660).
T1 construct: made in house; host or cells: E. coli
T1 sequence (A5H660 1-440): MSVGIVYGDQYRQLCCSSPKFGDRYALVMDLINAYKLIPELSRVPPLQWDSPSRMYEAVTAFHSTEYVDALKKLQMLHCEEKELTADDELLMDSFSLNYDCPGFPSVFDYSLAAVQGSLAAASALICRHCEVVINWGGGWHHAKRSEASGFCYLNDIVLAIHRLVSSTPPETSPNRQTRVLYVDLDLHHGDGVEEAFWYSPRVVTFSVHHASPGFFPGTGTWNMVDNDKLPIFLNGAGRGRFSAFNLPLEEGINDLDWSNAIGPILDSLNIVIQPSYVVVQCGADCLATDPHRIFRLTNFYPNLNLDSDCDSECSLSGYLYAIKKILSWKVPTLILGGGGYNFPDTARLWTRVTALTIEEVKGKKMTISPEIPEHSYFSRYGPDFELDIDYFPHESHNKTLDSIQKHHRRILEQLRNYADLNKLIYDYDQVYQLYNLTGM
The assay can be described thus: biochemical. It counts as biochemical.

`O=C(NO)c1cn(-c2ccccc2)nn1` [Compound 2 b, N ‐Hydroxy‐1‐phenyl‐1H‐1,2,3‐triazole‐4‐carboxamide]: the “selectivity for smHDAC8 (over hsHDAC8)” value (from IC50 values smHDAC8 vs hsHDAC8) was “threefold”.

In turn, `O=C(CCCCCCC(=O)Nc1ccccc1)NO` [SAHA (1), SAHA, reference compound] yielded an IC50 of 1.17 ± 0.33 µM.

Usually IC50 stands for the midpoint of a concentration-inhibition curve. A lower IC50 goes with greater potency.
